Results published in PubChem BioAssay (NCI).
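Results reflect a 48-hour exposure of cells in 96-well plates to compound at five concentrations. Abbreviation: GI50, concentration required for 50% inhibition of growth. At the TGI there is no net growth.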

Assays:
Assay in all cases: NCI tumour cell line growth inhibition, 48 h
786-0 renal = system: 786-0 renal
A549 NSCLC = system: A549 NSCLC
ACHN renal = system: ACHN renal
BT-549 breast = system: BT-549 breast
CAKI-1 renal = system: CAKI-1 renal
CCRF-CEM leukemia = system: CCRF-CEM leukemia
COLO 205 colon = system: COLO 205 colon
DU-145 prostate = system: DU-145 prostate
EKVX NSCLC = system: EKVX NSCLC
HCT-116 colon = system: HCT-116 colon
HCT-15 colon = system: HCT-15 colon
HL-60(TB) leukemia = system: HL-60(TB) leukemia
HOP-62 NSCLC = system: HOP-62 NSCLC
HOP-92 NSCLC = system: HOP-92 NSCLC
HS 578T breast = system: HS 578T breast
HT29 colon = system: HT29 colon
IGROV1 ovarian = system: IGROV1 ovarian
K-562 leukemia = system: K-562 leukemia
KM12 colon = system: KM12 colon
LOX IMVI melanoma = system: LOX IMVI melanoma
M14 melanoma = system: M14 melanoma
MALME-3M melanoma = system: MALME-3M melanoma
MCF7 breast = system: MCF7 breast
MDA-MB-435 = system: MDA-MB-435
MDA-N = system: MDA-N
MOLT-4 leukemia = system: MOLT-4 leukemia
NCI-H226 lung = system: NCI-H226 lung
NCI-H23 lung = system: NCI-H23 lung
NCI-H322M lung = system: NCI-H322M lung
NCI-H460 lung = system: NCI-H460 lung
NCI-H522 lung = system: NCI-H522 lung
NCI/ADR-RES ovarian = system: NCI/ADR-RES ovarian
OVCAR-3 ovarian = system: OVCAR-3 ovarian
OVCAR-4 ovarian = system: OVCAR-4 ovarian
OVCAR-5 ovarian = system: OVCAR-5 ovarian
OVCAR-8 ovarian = system: OVCAR-8 ovarian
PC-3 prostate = system: PC-3 prostate
RPMI-8226 leukemia = system: RPMI-8226 leukemia
SF-268 CNS = system: SF-268 CNS
SF-295 CNS = system: SF-295 CNS
SK-MEL-2 melanoma = system: SK-MEL-2 melanoma
SK-MEL-28 melanoma = system: SK-MEL-28 melanoma
SK-MEL-5 melanoma = system: SK-MEL-5 melanoma
SK-OV-3 ovarian = system: SK-OV-3 ovarian
SN12C renal = system: SN12C renal
SNB-19 CNS = system: SNB-19 CNS
SNB-75 CNS = system: SNB-75 CNS
SR leukemia = system: SR leukemia
SW-620 colon = system: SW-620 colon
T-47D breast = system: T-47D breast
TK-10 renal = system: TK-10 renal
U251 CNS = system: U251 CNS
UACC-257 melanoma = system: UACC-257 melanoma
UACC-62 melanoma = system: UACC-62 melanoma
UO-31 renal = system: UO-31 renal

## CN1C(C)(C)C(Br)C(=O)C(Br)C1(C)C (stereo not given)
786-0 renal
  GI50: > 100 µM
  TGI: > 100 µM
A549 NSCLC
  GI50: > 100 µM
  TGI: > 100 µM
ACHN renal
  GI50: > 100 µM
  TGI: > 100 µM
BT-549 breast
  GI50: > 100 µM
  TGI: > 100 µM
CAKI-1 renal
  GI50: > 100 µM
  TGI: > 100 µM
CCRF-CEM leukemia
  GI50: > 100 µM
  TGI: > 100 µM
COLO 205 colon
  GI50: > 100 µM
  TGI: > 100 µM
DU-145 prostate
  GI50: > 100 µM
  TGI: > 100 µM
EKVX NSCLC
  GI50: > 100 µM
  TGI: > 100 µM
HCT-116 colon
  GI50: > 100 µM
  TGI: > 100 µM
HCT-15 colon
  GI50: > 100 µM
  TGI: > 100 µM
HL-60(TB) leukemia
  GI50: > 100 µM
  TGI: > 100 µM
HOP-62 NSCLC
  GI50: > 100 µM
  TGI: > 100 µM
HOP-92 NSCLC
  GI50: > 100 µM
  TGI: > 100 µM
HS 578T breast
  GI50: > 100 µM
  TGI: > 100 µM
HT29 colon
  GI50: > 100 µM
  TGI: > 100 µM
IGROV1 ovarian
  GI50: > 100 µM
  TGI: > 100 µM
K-562 leukemia
  GI50: > 100 µM
  TGI: > 100 µM
KM12 colon
  GI50: > 100 µM
  TGI: > 100 µM
LOX IMVI melanoma
  GI50: > 100 µM
  TGI: > 100 µM
M14 melanoma
  GI50: > 100 µM
  TGI: > 100 µM
MALME-3M melanoma
  GI50: > 100 µM
  TGI: > 100 µM
MCF7 breast
  GI50: 50.1 µM
  TGI: > 100 µM
MDA-MB-435
  GI50: > 100 µM
  TGI: > 100 µM
MDA-N
  GI50: > 100 µM
  TGI: > 100 µM
MOLT-4 leukemia
  GI50: > 100 µM
  TGI: > 100 µM
NCI-H226 lung
  GI50: 19.6 µM
  TGI: 50.8 µM
NCI-H23 lung
  GI50: > 100 µM
  TGI: > 100 µM
NCI-H322M lung
  GI50: > 100 µM
  TGI: > 100 µM
NCI-H460 lung
  GI50: > 100 µM
  TGI: > 100 µM
NCI-H522 lung
  GI50: > 100 µM
  TGI: > 100 µM
NCI/ADR-RES ovarian
  GI50: > 100 µM
  TGI: > 100 µM
OVCAR-3 ovarian
  GI50: > 100 µM
  TGI: > 100 µM
OVCAR-4 ovarian
  GI50: > 100 µM
  TGI: > 100 µM
OVCAR-5 ovarian
  GI50: 31.8 µM
  TGI: 81.4 µM
OVCAR-8 ovarian
  GI50: > 100 µM
  TGI: > 100 µM
PC-3 prostate
  GI50: > 100 µM
  TGI: > 100 µM
RPMI-8226 leukemia
  GI50: > 100 µM
  TGI: > 100 µM
SF-268 CNS
  GI50: > 100 µM
  TGI: > 100 µM
SF-295 CNS
  GI50: > 100 µM
  TGI: > 100 µM
SK-MEL-2 melanoma
  GI50: > 100 µM
  TGI: > 100 µM
SK-MEL-28 melanoma
  GI50: > 100 µM
  TGI: > 100 µM
SK-MEL-5 melanoma
  GI50: > 100 µM
  TGI: > 100 µM
SK-OV-3 ovarian
  GI50: > 100 µM
  TGI: > 100 µM
SN12C renal
  GI50: > 100 µM
  TGI: > 100 µM
SNB-19 CNS
  GI50: > 100 µM
  TGI: > 100 µM
SNB-75 CNS
  GI50: > 100 µM
  TGI: > 100 µM
SR leukemia
  GI50: > 100 µM
  TGI: > 100 µM
SW-620 colon
  GI50: > 100 µM
  TGI: > 100 µM
T-47D breast
  GI50: > 100 µM
  TGI: > 100 µM
TK-10 renal
  GI50: > 100 µM
  TGI: > 100 µM
U251 CNS
  GI50: > 100 µM
  TGI: > 100 µM
UACC-257 melanoma
  GI50: > 100 µM
  TGI: > 100 µM
UACC-62 melanoma
  GI50: > 100 µM
  TGI: > 100 µM
UO-31 renal
  GI50: > 100 µM
  TGI: > 100 µM
